{"sequences": {"note": "Protein sequences, listed by entry. Tags and fused reporters are not part of them.", "UniProt P61169, whole entry": "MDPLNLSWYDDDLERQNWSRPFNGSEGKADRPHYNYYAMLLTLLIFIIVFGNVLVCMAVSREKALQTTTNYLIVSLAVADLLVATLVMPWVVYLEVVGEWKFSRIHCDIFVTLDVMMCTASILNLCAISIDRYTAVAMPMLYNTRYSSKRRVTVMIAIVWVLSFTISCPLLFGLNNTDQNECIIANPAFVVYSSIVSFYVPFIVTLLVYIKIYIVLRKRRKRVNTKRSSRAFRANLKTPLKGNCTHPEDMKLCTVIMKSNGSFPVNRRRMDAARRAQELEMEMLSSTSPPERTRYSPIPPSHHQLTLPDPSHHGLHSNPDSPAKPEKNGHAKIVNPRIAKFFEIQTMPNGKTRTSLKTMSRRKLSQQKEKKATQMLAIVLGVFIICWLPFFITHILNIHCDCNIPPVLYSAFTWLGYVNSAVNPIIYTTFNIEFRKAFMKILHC"}, "source": "ChEMBL document CHEMBL1129267", "about": "“Aryl 1-but-3-ynyl-4-phenyl-1,2,3,6-tetrahydropyridines as potential antipsychotic agents: synthesis and structure-activity relationships” (J Med Chem, 1996)", "biological_target": "D(2) dopamine receptor (Rattus norvegicus, UniProt P61169)", "test": "Binding affinity at Dopamine receptor D2 in rat striatal membrane by [3H]spiperone displacement.", "format": "cell membranes, Striatum", "how_it_was_run": "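Rat striatal membranes; [³H]spiperone 0.2 nM final; nonspecific binding defined with (+)-butaclamol 1.0 µM final. Four to six concentrations, each run in triplicate; Ki obtained by nonlinear regression analysis.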", "data": [{"molecule": "C(#Cc1cnc2ccccc2c1)CCCN1CC=C(c2ccccc2)CC1", "values": [{"measurement": "Ki", "result": 40, "unit": "nM"}]}]}
